Chains of the proteins cited; added tags and fusions are not shown. Lines headed by an entry give the natural chain unless they say otherwise; changes in a name come on top.
UniProt Q92731: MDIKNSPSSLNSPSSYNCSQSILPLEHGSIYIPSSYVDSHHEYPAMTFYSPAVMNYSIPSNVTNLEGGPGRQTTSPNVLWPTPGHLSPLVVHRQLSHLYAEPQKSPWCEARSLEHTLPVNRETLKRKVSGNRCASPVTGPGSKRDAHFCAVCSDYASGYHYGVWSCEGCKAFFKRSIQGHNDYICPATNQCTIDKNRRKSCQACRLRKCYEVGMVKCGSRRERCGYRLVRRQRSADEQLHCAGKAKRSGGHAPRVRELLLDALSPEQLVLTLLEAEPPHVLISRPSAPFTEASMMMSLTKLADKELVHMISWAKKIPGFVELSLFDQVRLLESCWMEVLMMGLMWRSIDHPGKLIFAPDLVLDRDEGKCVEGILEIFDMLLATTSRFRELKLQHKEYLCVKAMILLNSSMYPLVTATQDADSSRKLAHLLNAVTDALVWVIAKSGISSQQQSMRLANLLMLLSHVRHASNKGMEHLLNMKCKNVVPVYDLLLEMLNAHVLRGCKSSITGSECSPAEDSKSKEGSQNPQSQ

In US20020072076A1 (priority 1999, published 2002):

Target: GFP/hERβ fusion protein (UniProt P42212+Q92731, F64L/H231L/S65T)
Type: cell-based, human
Conditions: 17β estradiol at final concentration 10^−7 M; 45 minutes after addition compared with immediately after (0 minute); serum-free, phenol-red-free L-15 medium; not observed in control cell expressing only GFP

C[C@]12CC[C@@H]3c4ccc(O)cc4CC[C@H]3[C@@H]1CC[C@@H]2O [17β estradiol]
diffusion time of the GFP/hERβ fusion protein (FCS measurement, intranuclear): increases
